Experimental data published in paper PMC11926245 (Nature Communications, 2025).

B1: Tyrosine hydroxylase, wild-type (hTH1) (enzyme)
chain: not shown
modifications: biotinylated with EZ-Link NHS-PEG4-Biotin for BLI only

Experiments:
[1] = target: T1, DNAJC12, full-length wild-type (isoform a) (human, UniProt Q9UKB3-1 1-198); test: BLI; biotinylated TH or TH variant immobilised on streptavidin sensors; DNAJC12 or variant 0.01-4 μM in solution; PBS, 0.02% Tween-20, 0.5 mg/mL BSA, 25 °C; responses fitted to a one-site hyperbola; conditions: both partners purified
T1 construct: Monomer by SEC-MALS; Cloned into pETMBP1a after the TEV site; also called DNAJC12 WT; source: E. coli BL21-CodonPlus(DE3)-RIL, purified (HisTrap, TEV cleavage, TALON, amylose, SEC); not shown: His6, N-terminal, cleaved; MBP, N-terminal, cleaved

DNAJC12(1-190) = DNAJC12(1-190) (human, UniProt Q9UKB3-1 1-190); test: as above; conditions: both partners purified
[2] = target: the molecule itself; test: SEC-MALS; Superdex 200 Increase, 20 mM Na-Hepes pH 7.0, 200 mM NaCl; DNAJC12 3 mg/mL, TH, TH:DNAJC12 complex, TH(1-158) and TH(155-497) 2 mg/mL
[3] = target: T1, DNAJC12, full-length wild-type (isoform …); test: BLI; as the BLI without dopamine, but TH with dopamine (DA); conditions: both partners purified
[4] = target: B1; test: BLI; biotinylated TH or TH variant immobilised on streptavidin sensors; DNAJC12 or variant 0.01-4 μM in solution; PBS, 0.02% Tween-20, 0.5 mg/mL BSA, 25 °C; responses fitted to a one-site hyperbola; conditions: both partners purified

Kd [1] [nM] | Kd (DNAJC12(1-190)) [nM] | Kd [3] [nM] | Kd [4] [nM] | Binder | stoichiometry N [2]
148 | 1670 | 147 | – | B1 | 4
– | – | – | 42 | DNAJC12(108-198) (domain or fragment, human, UniProt Q9UKB3-1 108-198, looked up) KKDLMLEESDKTHTTKMENEECNEQRERKKEELASTAEKTEQKEPKPLEKSVSPQNSDSSGFADVNGWHLRFRWSKDAPSELLRKFRNYEI | –
